Experimental data as given in US20230070988A1, “COMBINATIONS OF EGFR INHIBITORS AND ROR1 INHIBITORS FOR THE TREATMENT OF CANCER” (priority 2020, published 2023).

How the values were obtained:
NCI-H1975 cells = NCI-H1975 cells treated in vitro, dose response; assay type: cell-based; conditions: FIG. 2
Method: (§1) Experiments were performed using NCI-H1975, a NSCLC adenocarcinoma cell line. NCI-H1975 has an L858R mutation that increases EGFR activity.

NCI-H1975 = NCI-H1975 cell line xenograft mouse model of NSCLC; parameters: species or system mice (human NSCLC adenocarcinoma cell line); conditions: FIG. 3A-3D
Method: as §1
After tumor cell inoculation, the animals were checked daily for morbidity and mortality. […] Mortality and observed clinical signs were recorded for individual animals in detail.
Tumor volumes were measured twice per week in two dimensions using a caliper, and the volume was expressed in mm^3 using the formula: “V=(L×W×W)/2, where V is tumor volume, L is tumor length (the longest tumor dimension) and W is tumor width (the longest tumor dimension perpendicular to L). Dosing as well as tumor and body weight measurements were conducted in a Laminar Flow Cabinet.

Which results are given for `COc1cc2ncnc(Nc3ccc(F)c(Cl)c3)c2cc1OCCCN1CCOCC1` [gefitinib]?
resistance of NCI-H1975 (EGFR T790M) in vitro (NCI-H1975 cells): resistance; resistance of NCI-H1975 (EGFR T790M) in vivo (NCI-H1975): resistance
